PubChem BioAssay (NCI)
This is a selection; strong and weak results do not stand in their true shares. Some structures show a salt or complex split into parts, the way the source records it. Active and inactive are the calls of the source. No stated cut-off is given here; in the data, active means growth inhibition above about 70%; inactive means the rest.

How the values were obtained:
[1] = NCI Yeast Anticancer Drug Screen. Data for the rad50 strain (AID 155);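 further: 0% = growth of vehicle-only cultures of the same strain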; details: S. cerevisiae rad50 strain growth inhibition; at 50.0 µM; stronger effect = higher value
[2] = NCI Yeast Anticancer Drug Screen. Data for the mec2-1 strain (AID 157); details: S. cerevisiae mec2-1 strain, at 50.0 µM, stronger effect = higher value
[3] = NCI Yeast Anticancer Drug Screen. Data for the sgs1 mgt1 strain (AID 161);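 further: 0% = growth of cultures given vehicle only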; details: S. cerevisiae sgs1 mgt1 strain, at 50.0 µM, stronger effect = higher value
[4] = NCI Yeast Anticancer Drug Screen. Data for the cln2 rad14 strain (AID 165);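 further: 0% = growth equal to vehicle treated cultures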; details: S. cerevisiae cln2 rad14 strain, at 50.0 µM, stronger effect = higher value
[5] = NCI Yeast Anticancer Drug Screen. Data for the bub3 strain (AID 167); details: S. cerevisiae bub3 mutant strain, at 50.0 µM, stronger effect = higher value
[6] = NCI Yeast Anticancer Drug Screen. Data for the mlh1 rad18 strain (AID 175); details: S. cerevisiae mlh1 rad18 strain growth inhibition; at 50.0 µM; stronger effect = higher value

Measured: growth inhibition

CC(O)CNC1CCCCC1.O=[N+]([O-])c1cc([N+](=O)[O-])c(O)c([N+](=O)[O-])c1
inactive: [1] 44.9% | [2] 4.6% | [3] 29.6% | [4] -37.6% | [5] 2.5% | [6] 28.3%

O=C(O)c1ccccc1C(=O)c1ccc2ccccc2c1.O=C1c2cc([N+](=O)[O-])ccc2-c2c1cc([N+](=O)[O-])cc2[N+](=O)[O-]
inactive: [1] 52.6% | [2] 57.9% | [4] -5.4% | [5] 56.9%
active: [3] 78.3% | [6] 77.6%

CC(C)OP(C)(=O)O.[Nd]
inactive: [1] 8.9% | [2] 2.3% | [3] 9.7% | [4] -18.5% | [5] -12.9% | [6] -10.3%

O=[N+]([O-])c1cc([N+](=O)[O-])c(O)c([N+](=O)[O-])c1
inactive: [1] 0.1% | [2] -18.9% | [3] -4.5% | [4] 11.4% | [5] -2.55% | [6] 12.2%

CP(=S)(Nc1ccccc1)Nc1ccccc1
inactive: [1] 12.8% | [2] 1.4% | [3] 1.2% | [4] 14.4% | [5] 1.2% | [6] -0.4%

CN([PH+](F)F)[PH+](F)F.CN([PH+](F)F)[PH+](F)F.CN([PH+](F)F)[PH+](F)F.[Ni].[Ni].c1ccc([PH+](c2ccccc2)c2ccccc2)cc1.c1ccc([PH+](c2ccccc2)c2ccccc2)cc1
inactive: [1] 9.4% | [2] 4.65% | [3] -1.45% | [4] 19% | [5] 1.95% | [6] -7.9%

CC(C)OP(C)(=O)O.[Fe]
inactive: [1] -3.15% | [2] -7.5% | [3] 2.4% | [4] -39.1% | [5] -12.9% | [6] -4.5%

CC1CN1.O=[N+]([O-])c1cc([N+](=O)[O-])c(S(=O)(=O)O)c([N+](=O)[O-])c1
inactive: [1] 21.1% | [2] 28.9% | [3] 34.8% | [4] 33% | [5] 27.7% | [6] 46.1%

CCCCC(CCCC)NC(C)CO.O=[N+]([O-])c1cc([N+](=O)[O-])c(O)c([N+](=O)[O-])c1
inactive: [1] 26.6% | [2] 1.65% | [3] 12.4% | [4] -27.4% | [5] 8.15% | [6] 19.4%

O=[N+]([O-])c1cc([N+](=O)[O-])c(O)c([N+](=O)[O-])c1.SCCCc1cccnc1
inactive: [1] 1.9% | [2] -5.8% | [3] 4.3% | [4] 6.8% | [5] 1.2% | [6] -5.5%

CN(C)P(=O)(Cl)Cl
inactive: [1] 2.7% | [2] -14.4% | [3] -2.4% | [4] -50% | [5] 7.4% | [6] -1.45%

NCc1ccccn1.O=[N+]([O-])c1cc([N+](=O)[O-])c(O)c([N+](=O)[O-])c1
inactive: [1] 11.6% | [2] 19.9% | [3] 9.6% | [4] -7.5% | [5] 28.4% | [6] 19.2%

O=[N+]([O-])C(F)(CCNCC(F)([N+](=O)[O-])[N+](=O)[O-])[N+](=O)[O-]
active: [1] 90.8% | [2] 92.5% | [3] 92.6% | [4] 90.3% | [5] 91.3% | [6] 88.5%

NCCN.[Co+3].[K+].[N-]=[N+]=N.[N-]=[N+]=[N-].[N-]=[N+]=[N-].[N-]=[N+]=[N-]
inactive: [1] 25.2% | [2] 50.5% | [3] 44.7% | [4] 42.2% | [5] 44.9% | [6] 37.1%

CC(C)NCCO.O=[N+]([O-])c1cc([N+](=O)[O-])c(O)c([N+](=O)[O-])c1
inactive: [1] -8.55% | [2] 22.1% | [3] 12.8% | [4] 14.9% | [5] 6.3% | [6] -0.55%

O=C(O)COCN(CN(CN(OCC(=O)O)[N+](=O)[O-])[N+](=O)[O-])[N+](=O)[O-]
inactive: [1] 0% | [2] 24% | [3] 7.25% | [4] 13.4% | [5] 9.3% | [6] 18.1%

CC(C)CC(C)NCCO.O=[N+]([O-])c1cc([N+](=O)[O-])c(O)c([N+](=O)[O-])c1
inactive: [1] 4.65% | [2] 11.9% | [3] 0.6% | [4] -22.1% | [5] -9.75% | [6] -2.85%

CC1CCCCCN1C.O=[N+]([O-])c1cc([N+](=O)[O-])c(O)c([N+](=O)[O-])c1
inactive: [1] 4.8% | [2] -9.5% | [3] 5.45% | [4] 18.8% | [5] -6.2% | [6] 27.9%

NN/C(N)=N/[N+](=O)[O-]
inactive: [1] 21% | [2] -42.2% | [3] -4.25% | [4] 13.8% | [5] -16.6% | [6] 18.1%

Clc1ccc(-c2ncco2)cc1.O=[N+]([O-])c1cc([N+](=O)[O-])c(O)c([N+](=O)[O-])c1
inactive: [1] 12.7% | [2] 2.6% | [3] 36.2% | [4] 28.8% | [5] -5.4% | [6] 34.7%

CN1C(C)(C)CC(O)(c2ccccc2)CC1(C)C.O=[N+]([O-])c1cc([N+](=O)[O-])c(O)c([N+](=O)[O-])c1
inactive: [1] 28.2% | [2] 0.75% | [3] -10.8% | [4] 6.15% | [5] 0.9% | [6] 34.4%

CCC1C(=O)CCCCN1C.O=[N+]([O-])c1cc([N+](=O)[O-])c(O)c([N+](=O)[O-])c1
inactive: [1] 41.1% | [2] 14.9% | [3] 40.2% | [4] 24.7% | [5] 4.3% | [6] 38%

CCCCCCCNCCO.O=[N+]([O-])c1cc([N+](=O)[O-])c(O)c([N+](=O)[O-])c1
inactive: [1] 47.6% | [2] 13.3% | [3] 42.4% | [4] -22.1% | [5] 2.15% | [6] 33.1%

NC(=O)N/N=C(\N)N[N+](=O)[O-]
inactive: [1] 0.55% | [2] -7.95% | [3] -2.85% | [4] -41.5% | [5] -6.65% | [6] -3.35%

O=[N+]([O-])c1cc([N+](=O)[O-])c(NNc2c([N+](=O)[O-])cc([N+](=O)[O-])cc2[N+](=O)[O-])c([N+](=O)[O-])c1
active: [1] 96.9% | [2] 98.4% | [3] 98.2% | [4] 97.8% | [5] 97.2% | [6] 98.2%

CCNCCN=C(N)C(N)=NCCNCC
inactive: [1] 16.2% | [2] 14.6% | [3] 46.4% | [4] -5.15% | [5] 0.1% | [6] 38.2%

C[N+]1(CCCCC[N+]2(C)CCCCCC2)CCCCCC1.O=[N+]([O-])c1cc([N+](=O)[O-])c(O)c([N+](=O)[O-])c1
inactive: [1] -6.3% | [2] -2.65% | [3] -9.9% | [4] -11.5% | [5] -4.9% | [6] 0.1%

COP(C)(=O)OC(N)(N)SC (configuration not stated)
inactive: [1] 5.75% | [2] -14% | [3] 1.85% | [4] -16.8% | [5] -5.85% | [6] 8.4%

COc1c([N+](=O)[O-])cc(Cc2cc([N+](=O)[O-])c(OC)c([N+](=O)[O-])c2)cc1[N+](=O)[O-]
inactive: [1] 14.2% | [2] -0.8% | [3] 8.25% | [4] 0.35% | [5] -0.4% | [6] 7.6%

C=CCc1cccc2ccccc12.O=[N+]([O-])c1cc([N+](=O)[O-])c(O)c([N+](=O)[O-])c1
inactive: [1] 15.2% | [2] -1.15% | [3] 18.9% | [4] -1.2% | [5] 3.8% | [6] 21.6%

ClCCCc1ccncc1.O=[N+]([O-])c1cc([N+](=O)[O-])c(O)c([N+](=O)[O-])c1
inactive: [1] -3.3% | [2] -0.55% | [3] 6.65% | [4] -1.35% | [5] -0.95% | [6] -11.9%

CS/C(=C/[S+](C)C)c1ccccc1.O=[N+]([O-])c1cc([N+](=O)[O-])c(S(=O)(=O)[O-])c([N+](=O)[O-])c1
inactive: [1] 55.2% | [2] 24.2% | [3] 51.6% | [4] 29.7% | [5] 19.5% | [6] 47.5%
